GIV Gai3 FP: inhibitors of GIV GBA-motif binding to rat Galpha-i3; P08753; Galpha-i3/FITC-GIV peptide fluorescence polarization, 90 min; hits give low values; scaled: aluminum fluoride 0%, vehicle 100%; percent of control (FP), % (test concentration not listed); actives 0.42% (n = 210,000); AID 1224905;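 active = replicate mean at 85% of control or lower, very high polarization wells dropped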;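 also: wells of about 15 µL received 100 nL stock; the first replicate is given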
Sa growth 42C: blocks Staphylococcus aureus growth. S. aureus RN4220 growth, OD600, 20 h, 42 °C; active compounds read low. relative growth, % (no concentration beside the values). 0.53% of 170,000 active. AID 720641;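 active = relative growth at most 50% at the other temperature and 20+ points below 30 °C, or under 10% at both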
HCMV NEC inh: inhibitors of HCMV UL50-UL53 nuclear egress complex interaction. 0.15% of 190,000 active. HTRF UL50-UL53 interaction, normalized percent inhibition. inhibition, % (test concentration not listed); in the data active = inhibition above about 27%, passing the limit was not always enough
Each line names hits and unclear results; the compound was inactive in the other large screens. Rows were chosen to be rich in hits. Some 0.7% of all compounds tested hit in one or more screens of this group.

O=c1oc2cc(O)ccc2cc1-c1nc(-c2ccccc2F)no1	GIV Gai3 FP -62
CC(C)OC1(O)C(=O)c2ccccc2C(=O)C1(O)OC(C)C (stereo not drawn)	HCMV NEC inh 99 (no result: GIV Gai3 FP)
CC(C)OC1(c2ccccc2)OC(=O)c2ccccc21 (stereo not drawn)	none (no result: Sa growth 42C, HCMV NEC inh)
Cc1ccc(C)c(-c2csc(-c3cc4ccccc4oc3=O)n2)c1	none (no result: Sa growth 42C, HCMV NEC inh)
Brc1cccc(-c2nnc3sc(-c4ccncc4)nn23)c1	none (no result: Sa growth 42C)
CCOC(=O)C1=C(C)N=c2s/c(=C/c3cc(Br)cc([N+](=O)[O-])c3O)c(=O)n2C1c1ccccc1 (stereo not drawn)	GIV Gai3 FP 26 (no result: Sa growth 42C, HCMV NEC inh)
CCOC(=O)C1=C(C)N=c2s/c(=C/c3cc([N+](=O)[O-])ccc3O)c(=O)n2C1c1ccc(SC)cc1 (stereo not drawn)	GIV Gai3 FP 26 (no result: Sa growth 42C, HCMV NEC inh)
CCOC(=O)C1=C(C)N=c2s/c(=C/c3cc([N+](=O)[O-])ccc3N3CCN(C)CC3)c(=O)n2C1c1ccc(F)cc1 (stereo not drawn)	none (no result: Sa growth 42C, HCMV NEC inh)
CCOC(=O)C1=C(C)N=c2s/c(=C/c3cccc([N+](=O)[O-])c3O)c(=O)n2C1c1cc(OC)c(OC)c(OC)c1 (stereo not drawn)	none (no result: Sa growth 42C, HCMV NEC inh)
Cc1ccc2c(c1)c(=O)c1ccccc1n2CC(=O)Nc1ccc(Oc2ccc(Cl)cc2)cc1	none (no result: Sa growth 42C)
CC(C)NC(=O)CSCc1csc2c1CCCC2	none (no result: HCMV NEC inh)
FC(F)(F)c1nc(SCc2ccc(Cl)cc2Cl)n[nH]1	Sa growth 42C -0.8
O=c1[nH]nc(SCc2ccc(Cl)cc2Cl)c(=O)[nH]1	none (no result: GIV Gai3 FP)
CCOC(=O)c1ccccc1NC(=O)Cc1c(C(=O)O)c(C)cn1CC	none (no result: Sa growth 42C, HCMV NEC inh)
CCCn1nnc(NCc2ccc(-c3ccc(C)c(Cl)c3)o2)n1	none (no result: Sa growth 42C)
COc1ccc(N=Cc2sc3ccccc3c2O)cc1	GIV Gai3 FP -32 (no result: HCMV NEC inh)
O=[N+]([O-])c1cccc(N=Cc2sc3ccccc3c2O)c1	none (no result: Sa growth 42C)
CCc1ccc(-n2c(=O)oc3ccc(Cl)cc3c2=O)cc1	none (no result: HCMV NEC inh)
CCc1ccccc1-n1c(=O)oc2ccc(Cl)cc2c1=O	Sa growth 42C -0.8
COC(=O)c1ccc(-c2nc3cnccn3c2Nc2ccc3c(c2)OCCO3)cc1	none (no result: Sa growth 42C)
C(/C=C/c1ccc2c(c1)OCO2)=Nc1ccc(N2CCOCC2)cc1	none (no result: GIV Gai3 FP)
O=S(=O)(c1cc(Cl)ccc1Cl)N1CCCC1	Sa growth 42C 49
O=S(=O)(c1cc(Cl)ccc1Cl)N1CCCCC1	none
O=C1N(Cc2ccccc2)c2cccc3cccc(c23)N1Cc1ccccc1	none (no result: HCMV NEC inh)
O=c1ccsn1Cc1ccccc1	Sa growth 42C -0.8
COc1ccc(NC(=O)c2nnn(Cc3nc(-c4ccc(C)cc4)oc3C)c2C)cc1	none (no result: Sa growth 42C)
Cc1[nH]c(C)c(S(=O)(=O)NC2CC2)c1-c1nnc(C2CCC2)o1	none (no result: Sa growth 42C, HCMV NEC inh)
Cc1cccc(C(=O)NCCn2ccc3ccccc32)c1	none (no result: GIV Gai3 FP, Sa growth 42C)
O=C1CCCN1c1ccc(S(=O)(=O)Nc2ccc3oc4c(c3c2)CCCC4)cc1	none
O=S(=O)(Nc1ccc2oc3c(c2c1)CCCC3)c1ccc(F)cc1	Sa growth 42C 39
COc1ccc(N2CCN(CC(O)c3ccc4c(c3)CCN4C(C)=O)CC2)cc1 (stereo not drawn)	none
Nc1c(C(=O)c2cccs2)oc2nc(-c3cccs3)cc(-c3ccco3)c12	GIV Gai3 FP -54
N#Cc1c(-c2ccco2)cc(-c2cccs2)nc1N	none
O=c1ccc(-c2ccc(F)cc2)nn1CCc1nc(-c2ccncc2)no1	none (no result: Sa growth 42C, HCMV NEC inh)
C=CC1=C(C(=O)O)N2C(=O)[C@@H](NC(=O)C(=NO)c3csc(N)n3)[C@H]2SC1	Sa growth 42C -0.1 (no result: GIV Gai3 FP, HCMV NEC inh)
COCC1=C(C(=O)OC(C)OC(=O)OC(C)C)N2C(=O)[C@@H](NC(=O)/C(=N/OC)c3csc(N)n3)[C@H]2SC1 (stereo partly drawn)	none (no result: GIV Gai3 FP)
CO/N=C(/C(=O)N[C@@H]1C(=O)N2C(C(=O)O)=C(COC(C)=O)CS[C@H]12)c1csc(N)n1	Sa growth 42C 1.1 (no result: GIV Gai3 FP)
CO/N=C(\C(=O)O)c1csc(N)n1	none
CN(C)CCn1nnnc1SCC1=C(C(=O)O)N2C(=O)[C@@H](NC(=O)Cc3csc(N)n3)[C@H]2SC1	none (no result: GIV Gai3 FP, Sa growth 42C)
CC(=O)OCC1=C(C(=O)O)N2C(=O)[C@@H](NC(=O)Cc3cccs3)[C@H]2SC1	Sa growth 42C -0.7
CN1CCN(C(=O)C2(C)CC(c3ccccc3)=NO2)CC1 (stereo not drawn)	none (no result: Sa growth 42C, HCMV NEC inh)
CCCCCn1c(=NC(=O)c2ccncc2)c(C#N)cc2c(=O)n3ccccc3nc21	none (no result: GIV Gai3 FP, HCMV NEC inh)
O=C(Nc1ccc(OC(=O)c2sc3ccccc3c2Cl)cc1)c1sc2ccccc2c1Cl	none (no result: Sa growth 42C)
COc1ccc(OC)c(C(=O)c2c(N)c(-c3nc(-c4ccc(Cl)cc4)cs3)c3ccccn23)c1	none (no result: Sa growth 42C)
COc1ccc(-c2noc(CC(=O)N(C)Cc3ccccc3)n2)cc1	none (no result: HCMV NEC inh)
CC1CCN(C(=O)c2csc(S(=O)(=O)N3CCOCC3)c2)CC1	none (no result: Sa growth 42C)
COCc1cc(=O)n2[nH]cc(-c3ccc(Cl)cc3)c2n1	none
CCCc1cc(=O)n2[nH]cc(-c3ccc(Cl)cc3)c2n1	Sa growth 42C -0.6
